The entries are a selection whose mix differs from that of the whole data set. Active and inactive are the calls of the source.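 How the source made its calls: active means compounds giving at least 50% protection of heart cells from peroxide-induced death in the single-dose screen, raw or plate-pattern-corrected value; inactive means the rest.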
assay: H9c2 cardiomyocyte survival under peroxide injury – uHTS, H9c2 cells, ATPLite luminescence, primary screen (AID 588492); settings: H9c2 cardiomyocytes, 2 h, at 20 µM, stronger effect = higher value;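 further: 0% = DMSO wells with peroxide and 100% = DMSO wells without peroxide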

Structure (SMILES)	protection from H2O2 cell death
C(Cc1nn[nH]n1)Cc1nn[nH]n1	inactive: 3.2%
Nc1ccc([As](=O)(O)c2ccc([N+](=O)[O-])cc2)cc1	inactive: -2.1%
O=C(OC1CN2CCC1CC2)c1cccc(Cl)c1 (stereo not drawn)	inactive: 13.2%
CC(=O)NC(SC(=S)N(C)C)C(Cl)(Cl)Cl (stereo not drawn)	inactive: -6.3%
O=[N+]([O-])c1ncn(CCn2cnc([N+](=O)[O-])n2)n1	inactive: 0.7%
O=[N+]([O-])c1ccc(O)c(/C=N/Nc2ccc([N+](=O)[O-])cc2[N+](=O)[O-])c1	inactive: -21.2%
O=[As](O)(c1ccccc1)c1ccc(O)cc1	inactive: -2.8%
C[C@H]1OP(=O)(Oc2ccccc2)[C@H](O)[C@H](O)[C@H]1N=[N+]=[N-] (stereo partly drawn)	inactive: -1.3%
O=P(Nc1nc2ccccc2s1)(c1ccccc1)c1ccccc1	inactive: 11.1%
COc1ccc(N)c([N+](=O)[O-])c1[N+](=O)[O-]	inactive: 26.8%
Nc1ccc(CCCCOc2ccccc2)cc1	inactive: -9.2%
O=P(Nc1ccccn1)(c1ccc(Br)cc1)c1ccc(Br)cc1	inactive: 1.2%
c1nnnn1CCn1cnnn1	inactive: 4.5%
O=P(Nc1nccs1)(c1ccccc1)c1ccccc1	inactive: 15.9%
CC(C)C(=O)NC(Sc1ccccc1)C(Cl)(Cl)Cl (stereo not drawn)	inactive: 0.7%
CC(=O)Nc1ccc(Oc2c([N+](=O)[O-])cc([N+](=O)[O-])cc2[N+](=O)[O-])cc1	inactive: -9.3%
CC(=O)Nc1ccc([As](=O)(O)O)c(O)c1	inactive: 8.4%
COC(=O)C1(C)COP(=O)(NCc2ccccc2)OC1 (stereo not drawn)	inactive: 6.1%
CC(=O)c1ccc(N2CC2c2ccncc2)cc1 (stereo not drawn)	inactive: 4.4%
N#C/C(=C\c1ccc(N(CCBr)CCBr)cc1)C(N)=O	inactive: 2.6%
C[C@H]1OP(=O)(Oc2ccccc2)C[C@@H]2O[C@@H]21 (stereo partly drawn)	inactive: 2.7%
C[C@@H]1C=CCP(=O)(Oc2ccccc2)O1 (stereo partly drawn)	inactive: 5.7%
Cc1ccccc1CN(C)C(=O)COC(=O)C(O)(c1ccccc1)c1ccccc1	inactive: -3.8%
CCc1cc(O)c([N+](=O)[O-])c(C)c1[N+](=O)[O-]	inactive: -0.2%
CC(C)(C)C(=O)NC(Sc1ccccc1)C(Cl)(Cl)Cl (stereo not drawn)	inactive: -8.7%
CCOc1ccc(C2=NCC(CBr)S2)cc1 (stereo not drawn)	inactive: 3.7%

Structure (SMILES)	protection from H2O2 cell death
O=P1(Nc2nc3ccc(Cl)cc3s2)COc2ccccc2O1 (stereo not drawn)	inactive: 0.2%
O=c1c2cc([N+](=O)[O-])ccc2[nH]c2c([N+](=O)[O-])cc([N+](=O)[O-])cc12	inactive: -17.2%
CN(C)C(=O)Oc1noc2ccccc12	inactive: -0.1%
CC(NC(=O)COC(=O)C(O)(c1ccccc1)c1ccccc1)c1ccccc1 (stereo not drawn)	inactive: -8.8%
Cc1ccccc1OP(=O)(Nc1ccccn1)Oc1ccccc1C	active: 60.7%
CC(=O)NC(SC(=S)N(CC(C)C)CC(C)C)C(Cl)(Cl)Cl (stereo not drawn)	inactive: 6.4%
Cc1ccc(OP(=O)(Nc2ccccn2)Oc2ccc(C)cc2)cc1	inactive: -12.8%
COC(=O)c1cc2c(s1)N=C(c1ccccc1)N(C)P2(=O)N1CCOCC1 (stereo not drawn)	inactive: 10.7%
CCC(=O)N1C2C3N(C(=O)CC)C1C1N(C(=O)CC)C(C(N1C(=O)CC)N3C(=O)CC)N2C(=O)CC	inactive: 7%
O=C(OC1CN2CCC1CC2)c1ccccc1 (stereo not drawn)	inactive: -5.4%
O=P1(N(CCCl)CCCl)OCCC2CCCCN21 (stereo not drawn)	inactive: -2%
O=C(NC1CCS(=O)(=O)C1)NP(=S)(Oc1ccccc1)Oc1ccccc1 (stereo not drawn)	inactive: 0.9%
CCNC(=S)/N=C(\N)N[N+](=O)[O-]	inactive: -6%
Cc1ccc(NP(=O)(Oc2cccc(C)c2)Oc2cccc(C)c2)nc1	inactive: -1%
c1ccc(-c2nn[nH]n2)c(-c2nn[nH]n2)c1	inactive: -3.3%
CCN(N=Nc1nonc1N)c1nonc1N	inactive: 0.1%
Nc1cccc2ccc([As](=O)(O)O)cc12	inactive: -2.4%
CN(C(=O)Cc1ccc(Cl)c(Cl)c1)[C@H]1CCCC[C@@H]1N1CCCC1	inactive: 3.1%
Cc1ccc(NP(=O)(Oc2ccccc2F)Oc2ccccc2F)nc1	inactive: -5.5%
Cc1cc(SC(NC(=O)c2ccc(F)cc2)C(Cl)(Cl)Cl)ncn1 (stereo not drawn)	inactive: 1.2%
CCOP(=O)(Nc1ccccc1)OCC	inactive: 7.1%
CCCC1OP(N)(=O)OCC1CC (stereo not drawn)	inactive: 1.9%
CC(=O)Nc1ccc([As](=O)(O)O)cc1	inactive: 3%
O=C(O)c1ccccc1[As](=O)(O)O	inactive: 2.6%
O=P(Nc1nc2ccc(Cl)cc2s1)(c1ccccc1)c1ccccc1	inactive: -1.5%
CN(C)P(=O)(N(C)C)n1c(Nc2ccccc2)nnc1-c1ccccc1	inactive: -2.5%

Structure (SMILES)	protection from H2O2 cell death
O=[N+]([O-])C1C(O)C(O)C([N+](=O)[O-])C(O)C1O (stereo not drawn)	inactive: 1.5%
Nc1cc(N)c2nonc2c1[N+](=O)[O-]	inactive: 6.3%
CC(C)CC(=O)NC(Sc1ccc(Cl)cc1)C(Cl)(Cl)Cl (stereo not drawn)	inactive: -5.8%
O=C(NC(Sc1ccncn1)C(Cl)(Cl)Cl)c1ccccc1 (stereo not drawn)	inactive: 5.9%
Oc1ccccc1CNc1ccccn1	inactive: 2.3%
Cc1ccc(OP(=O)(Nc2nccs2)Oc2ccc(C)cc2)cc1	inactive: 3.5%
COc1ccccc1OP(=O)(Nc1ccc(C)cn1)Oc1ccccc1OC	inactive: 22.6%
CN1CCCC(OC(=O)C(c2ccccc2)c2ccccc2)C1 (stereo not drawn)	inactive: -1.7%
Clc1ccc(Cl)c(NC2=NCC(CBr)S2)c1 (stereo not drawn)	inactive: -10.2%
NC(=O)c1cc([N+](=O)[O-])cc([N+](=O)[O-])c1N	inactive: 2.7%
Cc1ccc(N/C(=N/P(=O)(N2CCOCC2)N2CCOCC2)N2CCOCC2)cc1	inactive: -3%
CN(C(=O)Cc1ccc(Cl)c(Cl)c1)[C@H]1CCCC[C@H]1N1CCCC1	inactive: -1.9%
CN(C)C(=O)OCCc1n(C)cc[n+]1C	inactive: -1.4%
CC(C)c1nc(Nc2ccccc2)n(P(=O)(N(C)C)N(C)C)n1	inactive: 8.9%
CC(C)=N/N=C(\N)N[N+](=O)[O-]	inactive: 7.8%
CC1CCN(C(=O)Oc2c(Cl)cc(Cl)c3cccnc23)CC1	inactive: -3.9%
c1cc(-c2nn[nH]n2)ccc1-c1nn[nH]n1	inactive: 3.3%
C[N+]1=C2C=CC=CC=C2SC12C([N+](=O)[O-])=CC([N+](=O)[O-])=C[C-]2[N+](=O)[O-] (stereo not drawn)	inactive: -15.5%
Nc1ccc([As](=O)(O)c2ccc(N)cc2)cc1	inactive: 1.3%
CCN(/C(=N/P(=O)(N1CCOCC1)N1CCOCC1)N1CCOCC1)c1ccc(OC)cc1	inactive: -0.5%
CC(=O)N1C2C3N(C(C)=O)C1C1N(C(C)=O)C(C(N1C(C)=O)N3C(C)=O)N2C(C)=O	inactive: 14.1%
O=[N+]([O-])c1cccc2n[nH]nc12	inactive: -3.9%
O=[N+]([O-])c1cc([N+](=O)[O-])c(CCNc2ccccc2)c([N+](=O)[O-])c1	inactive: 2%
CCc1nc2c(n1)c1c(non1O)c1c2no[n+]1[O-]	inactive: -5.1%
Cc1ccc(NP(=O)(Oc2ccccc2)Oc2ccccc2)nc1	inactive: -6.7%
COc1ccc(C2=NCC(CBr)S2)cc1 (stereo not drawn)	inactive: 3.6%

Structure (SMILES)	protection from H2O2 cell death
COC(=O)C1(C)COP(=O)(Nc2ccccc2)OC1 (stereo not drawn)	inactive: 6.1%
O=[N+]([O-])c1cccc(NC2=NCC(CBr)S2)c1 (stereo not drawn)	inactive: -1.6%
O=C(O)CNc1ccc([As](=O)(O)O)cc1	inactive: -5.6%
CC(C)(C)C(=O)NC(Sc1ccncn1)C(Cl)(Cl)Cl (stereo not drawn)	inactive: 7.8%
O=[N+]([O-])c1ncn(CCn2ncnc2[N+](=O)[O-])n1	inactive: 3.7%
O=C(Nc1cc([As](=O)(O)O)ccc1O)c1ccccc1	inactive: -1.1%
O=P1(N(CCCl)CCCl)OCCCS1 (stereo not drawn)	inactive: 2.4%
O=[N+]([O-])c1ccc(Nc2ccc(Oc3ccc([N+](=O)[O-])cc3[N+](=O)[O-])cc2)c([N+](=O)[O-])c1	inactive: -2.1%
Cc1cc(SC(NC=O)C(Cl)(Cl)Cl)ncn1 (stereo not drawn)	inactive: 1%
O=P(Nc1ccccn1)(c1cccc2ccccc12)c1cccc2ccccc12	inactive: -2.7%
CCOC(=O)Nc1cccc([As](=O)(O)O)c1	inactive: 0%
Cc1cc(SC(NC(=O)c2ccccc2)C(Cl)(Cl)Cl)nc(C(C)C)n1 (stereo not drawn)	inactive: -2%
COP(=O)(OC)N1CC1c1ccccc1 (stereo not drawn)	inactive: -4.8%
CC1CCNP(=O)(N(CCCl)CCCl)O1 (stereo not drawn)	inactive: -0.5%
O=C(O)C(O)c1ccc(N(CCCl)CCCl)cc1 (stereo not drawn)	inactive: -1.8%
CCOC(=O)Nc1ccc([As](=O)(O)O)c(O)c1	inactive: 0.7%
CCC(C)N(CC(C)C)C(=S)SC(NC(C)=O)C(Cl)(Cl)Cl (stereo not drawn)	inactive: -0.6%
CCOC(=O)c1ccc(NC(=O)C(C)(CCl)SC)cc1 (stereo not drawn)	inactive: -0.4%
CSc1ccc(Nc2c([N+](=O)[O-])cc([N+](=O)[O-])cc2[N+](=O)[O-])cc1	inactive: -19.4%
O=C(OC1CN2CCC1CC2)c1cccc([N+](=O)[O-])c1 (stereo not drawn)	inactive: 11.2%
O=C(Nc1ccncc1[N+](=O)[O-])c1ccc([N+](=O)[O-])cc1[N+](=O)[O-]	inactive: 4.1%
O=C(COc1ccccc1)OC1CN2CCC1CC2 (stereo not drawn)	inactive: 5.9%
O=C(O)C(=O)c1ccc(N(CCCl)CCCl)cc1	inactive: -1.1%
COC(=O)C1(C)COP(=O)(N2CCCC2)OC1 (stereo not drawn)	inactive: 7.7%
COP1(=S)c2c(C)nn(CCC#N)c2N=C(c2ccc(F)cc2)N1C (stereo not drawn)	inactive: 9.5%

Source: PubChem BioAssay AID588492 (Sanford-Burnham Center for Chemical Genomics, 2011)
